Test results: ChEMBL document CHEMBL1137924, “Carbonic anhydrase inhibitors. Inhibition of the beta-class enzyme from the methanoarchaeon Methanobacterium thermoautotrophicum (Cab) with anions” (Bioorg Med Chem Lett, 2004)

Amino acid sequences for entries named in this document (tags omitted).
UniProt P00915, whole entry, looked up: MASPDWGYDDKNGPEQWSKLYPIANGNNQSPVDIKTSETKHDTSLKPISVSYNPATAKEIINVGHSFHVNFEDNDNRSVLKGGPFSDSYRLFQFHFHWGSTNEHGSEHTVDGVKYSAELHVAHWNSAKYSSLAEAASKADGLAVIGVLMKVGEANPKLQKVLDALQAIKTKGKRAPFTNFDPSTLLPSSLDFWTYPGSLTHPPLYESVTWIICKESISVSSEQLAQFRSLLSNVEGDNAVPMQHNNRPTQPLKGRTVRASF
UniProt P40881, whole entry, looked up: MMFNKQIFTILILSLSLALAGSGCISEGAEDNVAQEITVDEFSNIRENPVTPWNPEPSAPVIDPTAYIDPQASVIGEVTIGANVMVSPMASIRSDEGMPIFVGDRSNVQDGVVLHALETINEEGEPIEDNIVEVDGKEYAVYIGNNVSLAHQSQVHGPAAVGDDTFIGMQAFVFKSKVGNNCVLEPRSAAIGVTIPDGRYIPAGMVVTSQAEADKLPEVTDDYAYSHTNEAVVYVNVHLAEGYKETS
UniProt P22748, whole entry, looked up: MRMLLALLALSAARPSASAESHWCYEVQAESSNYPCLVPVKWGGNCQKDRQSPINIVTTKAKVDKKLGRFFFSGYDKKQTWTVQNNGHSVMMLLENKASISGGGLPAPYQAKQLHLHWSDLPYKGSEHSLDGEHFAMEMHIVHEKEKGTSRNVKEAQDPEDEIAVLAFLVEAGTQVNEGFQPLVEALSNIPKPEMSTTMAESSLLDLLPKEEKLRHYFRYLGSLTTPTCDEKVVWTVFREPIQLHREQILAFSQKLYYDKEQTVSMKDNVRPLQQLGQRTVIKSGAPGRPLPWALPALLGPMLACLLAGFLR

Tests used:
Carbonic anhydrase 1 = Carbonic anhydrase 1 (Homo sapiens, UniProt P00915)
Carbonic anhydrase 2 = Carbonic anhydrase 2 (Homo sapiens, UniProt P00918); assay: Inhibitory constant against carbonic anhydrase II
Carbonic anhydrase = Carbonic anhydrase (Methanosarcina thermophila, UniProt P40881)
Carbonic anhydrase 4 = Carbonic anhydrase 4 (Homo sapiens, UniProt P22748); assay: Inhibitory constant against carbonic anhydrase IV

SMILES | Ki (Carbonic anhydrase 1) [µM] | Ki (Carbonic anhydrase 2) [µM] | Ki (Carbonic anhydrase) [µM] | Ki (Carbonic anhydrase 4) [µM]
[N-]=[N+]=N | 1.2 | – | – | –
C#[N+][O-] | 0.7 | 30 | 90 | 30
